pIC50: −log10 of the molar value. Calls of active or inactive are those of the source. The rule behind the calls is not given here.
Molecular target: Microphthalmia-associated transcription factor (Homo sapiens) (UniProt O75030)
Assay: MITF inhibitors, potency by titration, dose response, biochemical, AlphaScreen, human (AID 1259371)
Details: AlphaScreen biochemical MITF assay, signal inhibition

Protein sequences, listed by entry. Tags and fused reporters are not part of them. Lines headed by an entry give the natural chain unless they say otherwise; changes in a name come on top.
UniProt O75030: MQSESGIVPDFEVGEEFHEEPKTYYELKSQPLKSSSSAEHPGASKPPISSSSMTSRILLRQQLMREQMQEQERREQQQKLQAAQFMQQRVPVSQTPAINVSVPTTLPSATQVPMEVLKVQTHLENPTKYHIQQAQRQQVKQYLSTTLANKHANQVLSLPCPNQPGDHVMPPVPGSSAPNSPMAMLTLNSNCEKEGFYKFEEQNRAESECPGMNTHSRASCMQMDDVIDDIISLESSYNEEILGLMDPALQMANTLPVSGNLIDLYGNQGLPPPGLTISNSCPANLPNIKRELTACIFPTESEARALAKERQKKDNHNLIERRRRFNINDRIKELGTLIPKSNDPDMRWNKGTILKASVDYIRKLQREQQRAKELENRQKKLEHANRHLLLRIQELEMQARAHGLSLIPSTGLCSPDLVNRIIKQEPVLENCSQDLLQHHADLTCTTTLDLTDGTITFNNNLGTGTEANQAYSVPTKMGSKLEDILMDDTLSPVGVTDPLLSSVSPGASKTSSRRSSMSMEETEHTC

Row | Compound | pIC50 | IC50
1 | Cc1ccc([N+](=O)[O-])c2no[n+]([O-])c12 | 7.78 | 
2 | CC(C)OP(=O)(OC(C)C)C(=O)c1ccco1 |  | inactive
